# Experiments:
# [1] = system: P. falciparum 3D7; experiment: in vitro inhibition of parasite growth by [3H] hypoxanthine incorporation, drugs alone; assay type: cell-based, Plasmodium falciparum; settings: for IC50: P. falciparum 3D7 (chloroquine sensitive)
# Procedure: (§1) 1. Initial determination of the in vitro efficacy profile (IC50/IC90) of FOS and PIP against a drug sensitive and a drug resistant strain of Plasmodium falciparum. P. falciparum 3D7 is chloroquine sensitive, P. falciparum K1 is insensitive to chloroquine
# (§2) in vitro inhibition of parasite growth was assessed by the incorporation of [3H] hypoxanthine, including chloroquine (CQ) and artesunate (ASN) as positive control drugs.
# (§3) The first set of in vitro experiments established the IC50 values of the drugs alone, followed by Fixed Ratio Combination assays of FOS+PIP with FOS+CND as a control combination. Chloroquine and artesunate were included in all assays to ensure the validity of the test.
# (§4) The first sets of experiments were carried out to establish the IC50 and IC90 values of the drugs on their own. The drugs were evaluated in 3 separate experiments (see Tables 1 & 2)
# [2] = system: P. falciparum K1; experiment: as above; assay type: cell-based, Plasmodium falciparum; settings: for IC50: P. falciparum K1 (insensitive to chloroquine)
# Procedure: as §1, §2, §3, §4
substance,measurement,setting,value
Clindamycin hydrochloride [CDN],IC50,[1]; Experiment 1,<0.21 µg/mL
same,IC50,[1]; Experiment 2,<0.21 µg/mL
same,IC50,[1]; Experiment 3,0.26 µg/mL
same,IC90,"[1]; P. falciparum 3D7, Experiment 1",0.27
same,IC90,"[1]; P. falciparum 3D7, Experiment 2",34.08
same,IC90,"[1]; P. falciparum 3D7, Experiment 3",>10
same,IC50,[2]; Experiment 1,46.19 µg/mL
same,IC50,[2]; Experiment 2,45.15 µg/mL
same,IC50,[2]; Experiment 3,0.53 µg/mL
same,IC90,"[2]; P. falciparum K1, Experiment 1",>50
same,IC90,"[2]; P. falciparum K1, Experiment 2",>50
same,IC90,"[2]; P. falciparum K1, Experiment 3",>50
